Apparent affinities of Ab-14 variants for a coronavirus HR2 peptide

Data: MIT Lincoln Laboratory AlphaSeq set, Li et al. 2023, doi:10.1038/s41467-023-39022-2, as distributed in FLAb.

Target: peptide PDVDLGDISGINAS, taken from heptad repeat 2 (HR2) of SARS-CoV-2 spike.

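Designed CDR sequences, proposed from the first random library and measured here. Group labels follow the data file (Ctrl: baseline library sampled from a position-specific scoring matrix, with some repeated check sequences; GP: Gaussian process model; GPLM: also part of the Gaussian process libraries; HC: hill climbing; Gen: genetic algorithm; Gibbs: Gibbs sampling; a sequence that several methods proposed may carry one label only). Affinity was read by AlphaSeq, a pooled yeast mating assay with surface-displayed partners. After mating in shaken culture at 30 °C for 16 h, diploids were selected and their barcode pairs sequenced. Each replicate has its own calibration line, from reference interactions of the BCL2 family. Each pool was mated in six replicate cultures.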

The variants keep the heavy chain, the linker and the frameworks of Ab-14 (scFv order VH, the linker GGGGSGGGGSGGGGS, VL).
VH: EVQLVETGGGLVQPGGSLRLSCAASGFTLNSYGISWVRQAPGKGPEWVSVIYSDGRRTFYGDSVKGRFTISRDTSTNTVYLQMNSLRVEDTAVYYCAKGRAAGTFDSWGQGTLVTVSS
VL: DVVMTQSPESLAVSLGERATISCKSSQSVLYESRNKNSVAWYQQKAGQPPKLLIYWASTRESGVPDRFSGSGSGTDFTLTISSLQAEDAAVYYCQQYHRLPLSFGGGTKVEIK

The parent's light chain CDRs are KSSQSVLYESRNKNSVA, WASTRES, QQYHRLPLS; each variant's own CDRs replace them letter for letter.
This list holds designs with at most six substitutions.
Values are log10 of the apparent Kd in nM; lower means stronger binding.
A mean of the replicates is given; it leaves out those without a signal.
"nd" marks a missing value. The strain was present, yet no cells mated with the target were sequenced in that replicate, which points to weak or no binding.
Order: sorted from the lowest average up, undetected variants last.
Nonspecific signal, from three strains lacking the peptide, appeared in 4% of pairings of all light chain designs, centred on 2.64 (5% of these signals below 1.59); values are not corrected for it.

With KLSQSMLYESRNVNNVA / QASTRES / QQYHRLPLM [GP_Gibbs] the result was -0.38, -0.44, -0.64, -0.85, -0.55, -0.53 (mean -0.56).
With KSSQSWLYESRNKNSVA / NASTRES / QQYHRLPLS [GP_Gen] the result was -0.34, -0.38, -0.43, -0.61, -0.47, -0.35 (mean -0.43).
With KSGQGVLYESRNKNNVA / GASTRES / QQYHRLPLS [GPLM_HC] the result was -0.27, -0.29, -0.34, -0.58, -0.59, -0.22 (mean -0.38).
With KLSQSYLYESRNKNAVA / NASTRES / QQYHRLPLS [GP_Gen] the result was -0.23, -0.42, -0.49, -0.61, -0.35, -0.14 (mean -0.37).
With KVSQAVLYESRNKNSVA / DASTRES / QQYHRLPLS [GP_Gen] the result was -0.21, -0.33, -0.37, -0.49, -0.31, -0.15 (mean -0.31).
With KLSQSVLYESRNKNSVA / EASTREE / QQYHRLPLS [GP_Gen] the result was -0.24, -0.37, -0.32, -0.59, -0.29, -0.01 (mean -0.30).
With QLSQSVLYESRNKNSVA / EASTRES / QQYHRLPLS [GP_Gen] the result was -0.24, -0.21, -0.31, -0.50, -0.35, -0.12 (mean -0.29).
With KLSQSVLYESRQKNSVA / NASTRMS / QQYHRLPLS [GP_Gen] the result was -0.34, -0.48, -0.26, -0.24, -0.31, -0.09 (mean -0.29).
With KVSQSVLYESRNQNSVA / NASTRES / QQYHRLPLS [GP_Gen] the result was -0.10, -0.09, -0.32, -0.53, -0.49, -0.16 (mean -0.28).
With KMQQSWLYESRNKNSVA / NASTRMS / QQYHRLPLS [GP_Gen] the result was -0.16, -0.10, -0.19, -0.33, -0.27, -0.01 (mean -0.18).
With KLSQSMLYESRNKNSVA / NASTREE / QQYHRLPLS [GP_Gen] the result was -0.07, -0.07, -0.04, -0.34, -0.01, -0.29 (mean -0.14).
With KSLQSVLYESRNKNSVA / GASTRED / QQYHRLPLS [GPLM_HC] the result was 0.10, -0.17, -0.14, -0.24, -0.24, -0.08 (mean -0.13).
With KLSQSVWYESRNKNNVA / DASTRES / QQYHRLPLS [GP_Gen] the result was -0.18, 0.41, nd, -0.63, -0.06, nd (mean -0.11).
With KLSQSMLYESRNKNSVA / NASTREW / QQYHRLPLS [GP_Gen] the result was -0.03, -0.14, -0.08, -0.28, -0.16, 0.04 (mean -0.11).
With KLDQSVLYESRNKNSVA / DASTRCS / QQYHRLPLS [GP_Gen] the result was -0.09, -0.08, -0.05, -0.31, -0.23, 0.14 (mean -0.10).
With ALSQSELYESRNWNSVA / NASTREK / QQYHRLPLS [GP_Gibbs] the result was 0.16, -0.20, 0.04, -0.25, -0.21, -0.04 (mean -0.08).
With KLSWSVLLESRAKNSVA / NASTRES / QQYHRLPLS [GP_Gibbs] the result was 0.13, -0.13, -0.07, -0.28, -0.20, 0.13 (mean -0.07).
With KVQQSDLYESRNKNSVA / NASTRES / QQYHRLPLS [GP_Gen] the result was -0.04, 0.01, -0.06, -0.08, -0.22, 0.03 (mean -0.06).
With KSGQGVDYESRNKNSVA / GASTRES / QQYHRLPLH [GP_HC] the result was 0.02, -0.28, 0.07, -0.05, -0.15, 0.03 (mean -0.06).
With KSSQSEHYESRNKNSVA / EASKRES / QQYADLPLS [Ctrl] the result was 0.21, 0.04, -0.14, -0.29, -0.30, 0.15 (mean -0.06).
With KVSQQHLYESRNKNSVA / QASTRES / QQYHRLPLS [GP_Gen] the result was 0.11, -0.02, -0.10, -0.28, -0.11, 0.08 (mean -0.05).
With KSSPSVLYESHNKNSVA / NASQRMS / QQYHRLPLS [GP_HC] the result was 0.06, 0.05, 0.01, -0.21, -0.16, 0.11 (mean -0.02).
With KLPQGELYESRNKNSVA / QASVRES / QQYHRLPLS [GP_HC] the result was 0.08, -0.08, -0.02, -0.23, 0.15, 0.23 (mean 0.02).
With KVSYSYLLESRNKNSVA / EASTRES / QQYHRLPLS [GP_HC] the result was 0.38, 0.09, 0.09, -0.06, -0.01, 0.15 (mean 0.11).
With KTPQGVLYESRNKNSVA / QASVRES / QQYHRLPLS [GP_HC] the result was 0.54, -0.02, 0.19, 0.11, -0.02, 0.12 (mean 0.16).
With KSAYSEGYESRNKNSVA / DASTRSS / QQYHRLPLS [GP_Gibbs] the result was 0.30, 0.21, 0.13, 0.04, 0.21, 0.25 (mean 0.19).
With KLSQSVLYESRNKNSVA / NGSTREM / QQYHRLPLS [GP_Gen] the result was 0.75, 0.14, -0.11, 0.17, 0.18, 0.24 (mean 0.23).
With KYSFSDLNESRNKNSVA / EASTRES / QQYHRLPLS [GP_Gibbs] the result was 0.29, 0.53, 0.06, -0.03, 0.28, 0.62 (mean 0.29).
With KVSQSCLYESRNKNSVA / NASTRES / QQYHRLPLS [GP_Gen] the result was 0.00, 0.53, 0.52, 0.25, -0.03, 0.52 (mean 0.30).
With KSSQSVCYESCNKNSVA / SASTRES / QQYHRLPLS [Ctrl] the result was 0.51, 0.57, 0.26, 0.13, 0.02, 0.47 (mean 0.33).
With KIYQSGPYESRNKNSVA / SASTRES / QQYFRLPLS [GP_Gibbs] the result was 0.39, 0.24, 0.41, 0.27, 0.19, 0.51 (mean 0.34).
With HSSPSVLYESRNKNSVA / QASTRES / QQYHRLPLS [GP_HC] the result was 0.31, 0.27, 0.55, 0.69, 0.32, 0.72 (mean 0.48).
With KFSQSYLYESRNKNSVA / GASTRES / QQYHRLPLS [Ctrl+GP_Gen] the result was 0.16, 0.01, -0.32, -0.25, -0.03, 0.22; 1.63, 1.32, 0.91, 1.20, 1.19, 1.32 (mean 0.61).
With HSSQSVPYESRNKNSMA / WGSTRES / QQYHRLPLS [Ctrl] the result was 0.53, 0.47, 0.62, 0.82, 0.67, 0.72 (mean 0.64).
With QFSQSVLYESRNKNSVA / WASTRES / QQYHRLPLS [Ctrl] the result was 0.76, 0.62, 0.79, 0.46, 0.88, 0.79 (mean 0.72).
With KSSQSVLYESENKNNVA / DATTRES / QQYHELPLS [Ctrl] the result was 1.15, 0.67, 0.61, 0.91, 0.90, 1.20 (mean 0.91).
With KSSQSWLYGSHNKNSVA / QASTRES / QQYHRLPLS [Ctrl] the result was 0.72, 0.91, 1.31, 1.19, 0.80, 1.12 (mean 1.01).
With KSSQSKLYESRNKNFVA / NASYRES / QQYHRLPLS [Ctrl] the result was 0.88, 1.27, 0.78, 1.10, 0.70, 1.44 (mean 1.03).
With KFSQSVLYESRVSNRVA / NASTRES / QQYHRLPLS [GP_HC] the result was 1.32, 0.99, 1.35, 0.87, 0.89, 1.00 (mean 1.07).
With KSSKSVLEESNNKNSVA / WASTRES / QQYHRLPLS [Ctrl] the result was 1.56, 0.80, 1.33, 1.39, 0.84, 1.06 (mean 1.16).
With KSSQSVGYESTYKNSVA / WASTRES / QQYHRLPLS [Ctrl] the result was 1.16, 0.75, 1.17, 0.91, 2.06, 1.18 (mean 1.20).
With KSSQSWLYISRNKNSVA / SASTTES / QQYSRLPLS [Ctrl] the result was nd, nd, nd, nd, nd, 1.70.
With KSSKSVLYESRNKNSLA / WAQTRES / QQYHRLPLS [Ctrl] the result was nd, 1.54, 1.45, 1.50, 2.06, 2.53 (mean 1.82).
With KSSQSVLYESRNHNSVA / WGSTRES / QQYHRLPLS [Ctrl] the result was 1.26, nd, 1.75, 1.24, 3.23, 2.48 (mean 1.99).
With KSSQSVLYEDRNKNSVA / WASTRES / QQYHRLPLS [Ctrl] the result was nd, 1.81, 1.95, 2.03, 1.98, 2.41 (mean 2.04).
With KTMQSVLYEARNKNSVA / WASTRES / QQYHRLPLS [Ctrl] the result was 2.08, 2.24, 2.08, nd, 2.57, 1.94 (mean 2.18).
With KSQISVLYESRNHNHVA / WASTRES / QQYHRLPLS [Ctrl] the result was nd, 2.51, nd, 1.88, 2.40, nd (mean 2.26).
With KSSQSVLYESRNKNSVA / WASARES / QQYHRLPLS [Ctrl] the result was nd, 2.31, nd, nd, nd, nd.
With KSSQSILYQSRNKNSVA / WASTRVS / QQYHRLPLE [Ctrl] the result was 2.83, 2.33, nd, 2.00, 2.56, 2.29 (mean 2.40).
With KSSQSVKYESRNKNSVA / WASTRES / QQYHRLPLS [Ctrl] the result was nd, nd, nd, nd, nd, nd.
With KSSQSVLYESRNKNIVA / DASTREN / QQYHRDPLS [Ctrl] the result was nd, nd, nd, nd, nd, nd.

The 5 strongest on average among those seen in every replicate, once more:

With KLSQSMLYESRNVNNVA / QASTRES / QQYHRLPLM [GP_Gibbs] the result was -0.38, -0.44, -0.64, -0.85, -0.55, -0.53 (mean -0.56).
With KSSQSWLYESRNKNSVA / NASTRES / QQYHRLPLS [GP_Gen] the result was -0.34, -0.38, -0.43, -0.61, -0.47, -0.35 (mean -0.43).
With KSGQGVLYESRNKNNVA / GASTRES / QQYHRLPLS [GPLM_HC] the result was -0.27, -0.29, -0.34, -0.58, -0.59, -0.22 (mean -0.38).
With KLSQSYLYESRNKNAVA / NASTRES / QQYHRLPLS [GP_Gen] the result was -0.23, -0.42, -0.49, -0.61, -0.35, -0.14 (mean -0.37).
With KVSQAVLYESRNKNSVA / DASTRES / QQYHRLPLS [GP_Gen] the result was -0.21, -0.33, -0.37, -0.49, -0.31, -0.15 (mean -0.31).

A sequence measured in both rounds can read differently, since the two assays cover different ranges.
A sequence that the file lists under several names has all its replicates listed entry by entry, parted by semicolons.
In the paper, a design with two or fewer of six values counts as a poor binder.
Of ten entries with the parent sequence, four were seen in most replicates (averages 0.34 to 2.37), three in one and three in none, so single entries are noisy.